In PubChem BioAssay (NCI):
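All cell lines were grown in 96-well plates and treated with compound for 48 hours. The concentration for 50% growth inhibition is given as GI50. Definition used: TGI = concentration required for complete inhibition of growth.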

Key:
Experiment in all cases: growth of human tumour cells (NCI), 48 h
[1] = system: T-47D breast
[2] = system: DMS 114 small cell lung
[3] = system: OVCAR-8 ovarian
[4] = system: MOLT-4 leukemia
[5] = system: HCC-2998 colon
[6] = system: DU-145 prostate
[7] = system: SR leukemia
[8] = system: HCT-116 colon
[9] = system: A498 renal
[10] = system: M19-MEL melanoma
[11] = system: LXFL 529 NSCLC
[12] = system: HCT-15 colon
[13] = system: K-562 leukemia
[14] = system: A549 NSCLC
[15] = system: DLD-1 colon
[16] = system: KM12 colon
[17] = system: NCI-H23 lung
[18] = system: SK-MEL-28 melanoma
[19] = system: XF 498 CNS
[20] = system: OVCAR-5 ovarian
[21] = system: SF-539 CNS
[22] = system: BT-549 breast
[23] = system: NCI-H226 lung
[24] = system: M14 melanoma
[25] = system: MDA-MB-435
[26] = system: U251 CNS
[27] = system: SW-620 colon
[28] = system: 786-0 renal
[29] = system: ACHN renal
[30] = system: HOP-62 NSCLC
[31] = system: UACC-62 melanoma
[32] = system: EKVX NSCLC
[33] = system: HL-60(TB) leukemia
[34] = system: COLO 205 colon
[35] = system: SNB-75 CNS
[36] = system: CAKI-1 renal
[37] = system: NCI-H522 lung
[38] = system: TK-10 renal
[39] = system: MDA-MB-231 breast
[40] = system: NCI/ADR-RES ovarian
[41] = system: IGROV1 ovarian
[42] = system: MALME-3M melanoma
[43] = system: OVCAR-3 ovarian
[44] = system: HT29 colon
[45] = system: UACC-257 melanoma
[46] = system: MDA-N
[47] = system: SNB-78 CNS
[48] = system: SK-OV-3 ovarian
[49] = system: UO-31 renal
[50] = system: KM20L2 colon
[51] = system: SF-295 CNS
[52] = system: NCI-H460 lung
[53] = system: SNB-19 CNS
[54] = system: CCRF-CEM leukemia
[55] = system: HOP-92 NSCLC
[56] = system: SN12C renal
[57] = system: DMS 273 small cell lung
[58] = system: HOP-18 NSCLC
[59] = system: LOX IMVI melanoma
[60] = system: RPMI-8226 leukemia
[61] = system: OVCAR-4 ovarian
[62] = system: PC-3 prostate
[63] = system: MCF7 breast
[64] = system: RXF 393 renal
[65] = system: SK-MEL-2 melanoma
[66] = system: SF-268 CNS
[67] = system: NCI-H322M lung
[68] = system: SK-MEL-5 melanoma

## C[C@@H]1CCOC(=O)/C=C/C=C\C(=O)O[C@@H]2C[C@H]3O[C@@H]4[C@@H]5OC5(C)CCC4(COC(=O)[C@H]1O)[C@]2(C)[C@@]31CO1 (some centres not stated)
[1]
  GI50: 338 nM
  TGI: 526 nM
[2]
  GI50: < 10 nM
  TGI: < 10 nM
[3]
  GI50: 107 nM
  TGI: 135 nM
[4]
  GI50: 156 nM
  TGI: 278 nM
[5]
  GI50: 51.2 nM
  TGI: 106 nM
[6]
  GI50: 392 nM
  TGI: 810 nM
[7]
  GI50: 39.7 nM
  TGI: 513 nM
[8]
  TGI: 14000 nM
[9]
  GI50: < 10 nM
  TGI: < 10 nM
[10]
  GI50: < 10 nM
  TGI: < 10 nM
[11]
  GI50: < 10 nM
  TGI: < 10 nM
[12]
  GI50: 64.5 nM
  TGI: 102 nM
[13]
  GI50: 360 nM
  TGI: 615 nM
[14]
  GI50: 53.2 nM
  TGI: 80.9 nM
[15]
  GI50: < 10 nM
  TGI: < 10 nM
[16]
  GI50: 51.8 nM
  TGI: 154 nM
[17]
  GI50: 62.4 nM
  TGI: 73.5 nM
[18]
  GI50: < 10 nM
  TGI: < 10 nM
[19]
  GI50: < 10 nM
  TGI: < 10 nM
[20]
  GI50: 49.7 nM
  TGI: 173 nM
[21]
  GI50: 118 nM
  TGI: 148 nM
[22]
  GI50: < 10 nM
  TGI: < 10 nM
[23]
  GI50: 113 nM
  TGI: 150 nM
[24]
  GI50: 46.2 nM
  TGI: 68.3 nM
[25]
  GI50: 330 nM
  TGI: 796 nM
[26]
  GI50: 84.5 nM
  TGI: 125 nM
[27]
  GI50: 50.8 nM
  TGI: 891 nM
[28]
  GI50: 151 nM
  TGI: 273 nM
[29]
  GI50: 56.3 nM
  TGI: 68.5 nM
[30]
  GI50: 61.6 nM
  TGI: 102 nM
[31]
  GI50: < 10 nM
  TGI: < 10 nM
[32]
  GI50: 354 nM
  TGI: 1280 nM
[33]
  GI50: 135 nM
  TGI: 265 nM
[34]
  GI50: 39.5 nM
  TGI: 68.5 nM
[35]
  GI50: 40.6 nM
  TGI: 55.8 nM
[36]
  GI50: 52.2 nM
  TGI: 279 nM
[37]
  GI50: 54.6 nM
  TGI: 91.2 nM
[38]
  GI50: 35.4 nM
  TGI: 170 nM
[39]
  TGI: 2130 nM
[40]
  TGI: 28300 nM
[41]
  GI50: 35.1 nM
  TGI: 524 nM
[42]
  GI50: 96.4 nM
  TGI: 130 nM
[43]
  GI50: 43 nM
  TGI: 74.8 nM
[44]
  GI50: 28.2 nM
  TGI: 49.8 nM
[45]
  GI50: 62.5 nM
  TGI: 274 nM
[46]
  GI50: 282 nM
  TGI: 464 nM
[47]
  GI50: < 10 nM
  TGI: 17.1 nM
[48]
  GI50: < 10 nM
  TGI: < 10 nM
[49]
  GI50: 58.3 nM
  TGI: 88.9 nM
[50]
  GI50: < 10 nM
  TGI: 14.8 nM
[51]
  GI50: 183 nM
  TGI: 666 nM
[52]
  GI50: 32.7 nM
  TGI: 55.8 nM
[53]
  GI50: 56.3 nM
  TGI: 69 nM
[54]
  GI50: 161 nM
  TGI: 307 nM
[55]
  GI50: 58.9 nM
  TGI: 159 nM
[56]
  GI50: 37.5 nM
  TGI: 169 nM
[57]
  GI50: < 10 nM
  TGI: < 10 nM
[58]
  GI50: 19.8 nM
  TGI: 145 nM
[59]
  GI50: 193 nM
  TGI: 423 nM
[60]
  GI50: 141 nM
  TGI: 372 nM
[61]
  GI50: 114 nM
  TGI: 151 nM
[62]
  GI50: 345 nM
  TGI: 494 nM
[63]
  TGI: 28300 nM
[64]
  GI50: < 10 nM
  TGI: < 10 nM
[65]
  GI50: 106 nM
  TGI: 139 nM
[66]
  GI50: 102 nM
  TGI: 190 nM
[67]
  GI50: 131 nM
  TGI: 1020 nM
[68]
  GI50: 58.2 nM
  TGI: 69.7 nM
